According to US11529354B2, “Methods and compositions for the treatment of tuberculosis” (PRESIDENT AND FELLOWS OF HARVARD COLLEGE, priority 2017, dated 2022):

Test system: BCG
Assay type: cell-based

## Cn1ccc(=Nc2ccc(NC(=O)c3ccc(N=c4ccn(C)c5ccc([N+](=O)[O-])cc45)cc3)cc2)cc1 [NSC 260594, 4-[(1-methyl-6-nitroquinolin-4-ylidene)amino]-N-[4-[(1-methylpyridin-4-ylidene)amino]phenyl]benzamide]
  CFU in combination with clinical drugs: CFU decreased
